# Test results as given in patent US10117433B2 (priority 2011, dated 2018).
# Test system: M. brassicae larvae
# Assay: Droplet feeding assays, M. brassicae (Example 7)
# Assay type: in vivo, Mamestra brassicae
# Details: fifth stadium; total of 160 μg fusion protein over four days or equivalent dose of Hv1a
substance,measurement,value
ω-ACTX-Hv1a,survival to pupation,all survived to pupation
